Laboratory results published in ChEMBL document CHEMBL1129994, “Synthesis and transporter binding properties of 2,3-diphenyltropane stereoisomers. Comparison to 3beta-phenyltropane-2beta-carboxylic acid esters” (J Med Chem, 1997).

Chains of the proteins cited; added tags and fusions are not shown.
UniProt P23977, whole entry: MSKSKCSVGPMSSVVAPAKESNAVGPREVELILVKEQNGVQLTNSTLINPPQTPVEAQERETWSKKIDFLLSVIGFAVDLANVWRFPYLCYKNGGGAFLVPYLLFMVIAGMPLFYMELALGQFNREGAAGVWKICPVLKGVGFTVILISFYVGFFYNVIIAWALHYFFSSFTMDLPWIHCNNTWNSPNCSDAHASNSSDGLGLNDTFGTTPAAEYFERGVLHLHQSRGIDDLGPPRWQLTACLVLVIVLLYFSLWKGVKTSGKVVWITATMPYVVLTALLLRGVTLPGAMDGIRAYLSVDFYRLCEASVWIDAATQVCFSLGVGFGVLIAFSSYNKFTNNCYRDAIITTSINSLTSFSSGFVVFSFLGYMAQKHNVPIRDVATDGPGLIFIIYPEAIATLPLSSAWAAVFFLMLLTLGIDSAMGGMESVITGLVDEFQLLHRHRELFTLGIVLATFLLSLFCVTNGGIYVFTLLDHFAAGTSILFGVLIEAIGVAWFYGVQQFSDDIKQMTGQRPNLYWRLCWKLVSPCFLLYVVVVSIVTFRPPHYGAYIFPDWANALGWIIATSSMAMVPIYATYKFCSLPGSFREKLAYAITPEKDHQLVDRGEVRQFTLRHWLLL

Biological target: Sodium-dependent dopamine transporter (Rattus norvegicus, UniProt P23977)
Assay: Inhibitory activity against Dopamine transporter using 0.5 nM [3H]WIN-35428 as radioligand

For `CN1[C@@H]2CC[C@H]1[C@H](c1ccccc1)[C@H](c1ccccc1)C2` (racemic), the IC50 was 1270 nM.
